Source: ChEMBL document CHEMBL3797051 (Medchemcomm, 2016)

Target: T1, Histone deacetylase 8 (Homo sapiens, UniProt Q9BY41)
T1 sequence (Q9BY41 whole entry): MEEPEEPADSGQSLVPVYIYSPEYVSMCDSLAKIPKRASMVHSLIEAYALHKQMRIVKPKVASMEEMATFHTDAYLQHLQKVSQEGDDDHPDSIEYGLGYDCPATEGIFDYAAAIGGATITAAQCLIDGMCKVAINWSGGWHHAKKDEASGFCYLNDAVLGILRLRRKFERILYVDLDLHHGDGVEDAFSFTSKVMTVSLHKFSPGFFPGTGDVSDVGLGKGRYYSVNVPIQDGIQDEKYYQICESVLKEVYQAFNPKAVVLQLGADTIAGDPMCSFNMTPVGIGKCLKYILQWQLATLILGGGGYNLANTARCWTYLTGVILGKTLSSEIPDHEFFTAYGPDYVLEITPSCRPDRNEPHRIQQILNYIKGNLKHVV
Experiment: Inhibition of recombinant human HDAC8 expressed in Escherichia coli assessed as hydrolase activity using fluorogenic AC-LGK-tfa-AMC as substrate measured after 60 mins by fluorescence analysis

- Ki: 230 nM
SMILES: O=C(CCCCCCC(=O)Nc1ccccc1)NO [VORINOSTAT]
